Drawing on ChEMBL document CHEMBL3297699, “Synthesis of novel fluoro analogues of MKC442 as microbicides” (J Med Chem, 2014), this text covers CC50 for 1 molecule.

SMILES strings stand for the structures.

The data set is described as follows: Cytotoxicity against human MT4 cells after 96 hrs by MTT assay. The class given is cell-based. (In general: Formazan colour is commonly taken as a measure of viable cells.)

Molecule `Cc1cc(C#N)cc(C)c1Oc1nc(Nc2ccc(C#N)cc2)nc(N)c1Br` [ETRAVIRINE] returned a CC50 at 96 h of 11 µM.

A word on the CC50: it is the concentration at which the toxic effect on the cells reaches its halfway point. The low end stands for harm at low concentration, the high end for better tolerance by the cells.
